Laboratory results published in US20090088457A1, “Primary Amines as Renin Inhibitors” (Actelion Pharmaceuticals, Ltd., priority 2006, published 2009).

Amino acid sequences for entries named in this document (tags omitted). Residues count along the entry.
UniProt P00797, 67-406: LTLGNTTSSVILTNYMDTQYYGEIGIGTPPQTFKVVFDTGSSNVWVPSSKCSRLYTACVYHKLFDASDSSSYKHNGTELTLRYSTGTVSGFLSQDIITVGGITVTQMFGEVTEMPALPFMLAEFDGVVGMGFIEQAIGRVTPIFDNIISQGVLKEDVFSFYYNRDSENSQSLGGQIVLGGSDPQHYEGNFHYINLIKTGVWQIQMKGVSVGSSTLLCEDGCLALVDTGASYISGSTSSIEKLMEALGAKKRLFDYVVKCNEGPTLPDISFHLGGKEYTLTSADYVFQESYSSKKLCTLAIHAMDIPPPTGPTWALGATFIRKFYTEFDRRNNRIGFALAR

Target: recombinant human renin (Homo sapiens, UniProt P00797)
Experiment: Primary renin inhibition assay: IC50 in buffer, 384 well MTP (AngI quantified by EIA)
Assay type: biochemical
Conditions: human tetradecapeptide substrate, 37° C. for 3 h
Experimental: 1. Enzyme Immuno Assay (EIA) to Estimate AngI Accumulation and Renin Inhibition
1.1 Preparation of AngI-BSA Conjugate
1.3 mg (1 μmol) of AngI [1-10 (Bachem, H-1680)] and 17 mg (0.26 μmol) of BSA (Fluka, 05475) were dissolved in 4 mL of 0.1M phosphate buffer, pH 7.4, after which 2 mL of a 1:100 dilution of glutaraldehyde in H2O (Sigma G-5882) was added dropwise. The mixture was incubated overnight at 4° C., then dialyzed against 2 liters of 0.9% NaCl, twice for 4 h at rt, followed by dialysis against 2 liters of PBS 1× overnight at rt. The solution was then filtered with a Syringe filter, 0.45 μm (Nalgene, Cat. No. 194-2545). The conjugate can be stored in polypropylene tubes in 0.05% sodium azide at 4° C. for at least 12 months.
1.2 Preparation of BSA-AngI Coated MTP […]
The renin assay was adapted from an assay described before (Fischli W. et al., Hypertension, 1991, 18:22-31) and consists of two steps: in the first step, recombinant human renin is incubated with its substrate (commercial human tetradecapeptide renin substrate) to create the product Angiotensin I (AngI). In the second step, the accumulated AngI is measured by an immunological assay (enzyme immuno assay, EIA). […]

(rac.)-(R*)-3-Amino-N-cyclopropyl-2-(2-{2-[2,6-dichloro-4-((R*)-1-hydroxy-ethyl)-phenoxy]-ethoxy}-thiazol-5-ylmethyl)-N-(2,3-dimethyl-benzyl)-propionamide and (rac.)-(R*)-3-amino-N-cyclopropyl-2-(2-{2-[2,6-dichloro-4-((S*)-1-hydroxy-ethyl)-phenoxy]-ethoxy}-thiazol-5-ylmethyl)-N-(2,3-dimethyl-benzyl)-propionamide [Example 6]
IC50: 8.1 nM
